Measured values taken from patent US6936585B2, “Corticotropin releasing factor 2 receptor agonists” (priority 2002, dated 2005).
pEC50: −log10 of the molar value.

Columns and labels:
CRF2R = target: T1, CRF2R (Homo sapiens, UniProt Q13324); assay: CRF2R agonist activation (EC50 / Emax), called comparative CRF binding; type: cell-based; conditions: for Emax: read-out: CRF2R Emax
T1 sequence (Q13324 1-411): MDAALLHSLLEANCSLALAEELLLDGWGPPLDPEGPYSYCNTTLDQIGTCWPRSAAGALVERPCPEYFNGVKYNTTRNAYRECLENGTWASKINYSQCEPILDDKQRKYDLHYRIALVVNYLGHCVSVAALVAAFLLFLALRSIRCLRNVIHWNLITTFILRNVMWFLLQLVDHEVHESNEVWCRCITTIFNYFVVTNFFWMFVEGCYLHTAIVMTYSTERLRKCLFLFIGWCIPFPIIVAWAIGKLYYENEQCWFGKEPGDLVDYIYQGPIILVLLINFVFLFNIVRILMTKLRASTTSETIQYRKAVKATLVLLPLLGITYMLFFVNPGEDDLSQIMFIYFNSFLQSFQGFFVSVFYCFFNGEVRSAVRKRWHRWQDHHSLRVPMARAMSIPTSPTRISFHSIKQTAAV
How it was run: (§1)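 Agonism at each human CRF receptor subtype is inferred from increased cAMP relative to vehicle, using cells expressing that subtype and either lysate cAMP measurement or a cAMP response element reporter.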

CRF1R = target: T2, CRF1R (Homo sapiens, UniProt P34998); assay: CRF1R agonist activation (EC50 / Emax), called comparative CRF binding; type: cell-based; conditions: for Emax: read-out: CRF1R Emax; for pEC50: CRF1R EC50
T2 sequence (P34998 24-415): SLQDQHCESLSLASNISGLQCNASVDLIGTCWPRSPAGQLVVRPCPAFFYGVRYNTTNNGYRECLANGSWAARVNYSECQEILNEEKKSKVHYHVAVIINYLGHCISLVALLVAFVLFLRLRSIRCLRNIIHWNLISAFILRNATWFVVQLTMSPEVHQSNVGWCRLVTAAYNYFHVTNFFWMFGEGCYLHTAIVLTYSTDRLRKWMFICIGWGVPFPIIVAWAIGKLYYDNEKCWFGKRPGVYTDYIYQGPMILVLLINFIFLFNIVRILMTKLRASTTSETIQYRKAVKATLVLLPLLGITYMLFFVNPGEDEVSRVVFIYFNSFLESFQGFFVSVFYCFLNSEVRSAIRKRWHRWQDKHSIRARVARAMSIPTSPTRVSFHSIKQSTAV
How it was run: as §1

SMILES | Emax (CRF2R) [%] | Emax (CRF1R) [%] | pEC50 (CRF2R) | pEC50 (CRF1R)
CC[C@H](C)[C@H](NC(=O)[C@@H](NC(=O)[C@H](CC(=O)O)NC(=O)[C@H](CC(C)C)NC(=O)[C@H](CC(C)C)NC(=O)[C@H](CC(C)C)NC(=O)[C@H](CCCNC(=N)N)NC(=O)[C@H](CC(N)=O)NC(=O)[C@H](CC(N)=O)NC(=O)[C@H](C)NC(=O)[C@H](C)NC(=O)[C@H](CCC(N)=O)NC(=O)[C@H](CCC(N)=O)NC(=O)[C@H](CCCCN)NC(=O)[C@H](CCC(=O)O)NC(=O)[C@H](CCCCN)NC(=O)[C@H](CCC(=O)O)NC(=O)[C@H](CCC(N)=O)NC(=O)[C@H](CCCCN)NC(=O)[C@H](CCC(=O)O)NC(=O)[C@@H](NC(=O)[C@H](CCC(=O)O)NC(=O)[C@@H](NC(=O)[C@H](CCSC)NC(=O)[C@H](CCCCN)NC(=O)[C@H](CCCNC(=N)N)NC(=O)[C@H](CC(C)C)NC(=O)[C@H](CC(C)C)NC(=O)[C@H](C)NC(=O)[C@H](CC(C)C)NC(=O)[C@@H]1CCCN1C(=O)[C@H](CC(C)C)NC(=O)[C@H](CC(=O)O)NC(=O)[C@@H](NC(=O)[C@H](CO)NC(=O)[C@@H](NC(=O)[C@@H]1CCCN1C(=O)[C@@H]1CCCN1C(=O)CNC(=O)[C@@H]1CCC(=O)N1)[C@@H](C)CC)[C@@H](C)CC)[C@@H](C)CC)[C@@H](C)CC)[C@@H](C)O)C(N)=O [compound 308] | 72.8 | 100 |  | 
CC[C@H](C)[C@H](NC(=O)[C@@H](NC(=O)[C@H](CC(=O)O)NC(=O)[C@H](CC(C)C)NC(=O)[C@H](CC(C)C)NC(=O)[C@H](CC(C)C)NC(=O)[C@H](CCCNC(=N)N)NC(=O)[C@H](CC(N)=O)NC(=O)[C@H](CC(N)=O)NC(=O)[C@H](C)NC(=O)[C@H](C)NC(=O)[C@H](CCC(N)=O)NC(=O)[C@H](CCC(N)=O)NC(=O)[C@H](CCCCN)NC(=O)[C@H](CCC(=O)O)NC(=O)[C@H](CCCCN)NC(=O)[C@H](CCC(=O)O)NC(=O)[C@H](CCC(N)=O)NC(=O)[C@H](CCCCN)NC(=O)[C@H](CCC(=O)O)NC(=O)[C@@H](NC(=O)[C@H](CCC(=O)O)NC(=O)[C@@H](NC(=O)[C@H](CCSC)NC(=O)[C@H](CCCCN)NC(=O)[C@H](CCCNC(=N)N)NC(=O)[C@H](CC(C)C)NC(=O)[C@H](CC(C)C)NC(=O)[C@@H](NC(=O)[C@@H](NC(=O)[C@@H]1CCCN1C(=O)[C@H](CC(C)C)NC(=O)[C@H](CC(=O)O)NC(=O)[C@@H](NC(=O)[C@H](CO)NC(=O)[C@@H](NC(=O)[C@@H]1CCCN1C(=O)[C@@H]1CCCN1C(=O)CNC(=O)[C@@H]1CCC(=O)N1)[C@@H](C)CC)[C@@H](C)CC)[C@@H](C)O)C(C)C)[C@@H](C)CC)[C@@H](C)CC)[C@@H](C)O)C(N)=O [compound 46] | 100 | 17 |  | 
CC[C@H](C)[C@H](NC(=O)[C@@H](NC(=O)[C@H](CC(=O)O)NC(=O)[C@H](CC(C)C)NC(=O)[C@H](CC(C)C)NC(=O)[C@H](CC(C)C)NC(=O)[C@H](C)NC(=O)[C@H](CC(N)=O)NC(=O)[C@H](CC(N)=O)NC(=O)[C@H](C)NC(=O)[C@H](C)NC(=O)[C@H](CCC(N)=O)NC(=O)[C@H](CCC(N)=O)NC(=O)[C@H](CCCCN)NC(=O)[C@H](CCC(=O)O)NC(=O)[C@H](CCCCN)NC(=O)[C@H](CCC(=O)O)NC(=O)[C@H](CCC(N)=O)NC(=O)[C@H](CCCCN)NC(=O)[C@H](CCC(=O)O)NC(=O)[C@@H](NC(=O)[C@H](CCC(=O)O)NC(=O)[C@@H](NC(=O)[C@H](CCSC)NC(=O)[C@H](CCCCN)NC(=O)[C@H](CCCNC(=N)N)NC(=O)[C@H](CC(C)C)NC(=O)[C@H](CC(C)C)NC(=O)[C@H](CCC(=O)O)NC(=O)[C@H](CC(C)C)NC(=O)[C@@H]1CCCN1C(=O)[C@H](CC(C)C)NC(=O)[C@H](CC(=O)O)NC(=O)[C@@H](NC(=O)[C@H](CO)NC(=O)[C@@H](NC(=O)[C@@H]1CCCN1C(=O)[C@@H]1CCCN1C(=O)CNC(=O)[C@@H]1CCC(=O)N1)[C@@H](C)CC)[C@@H](C)CC)[C@@H](C)CC)[C@@H](C)CC)[C@@H](C)O)C(N)=O [compound 235] | 100 | 70 | 7.59 | 6.09
CC[C@H](C)[C@H](NC(=O)[C@@H](NC(=O)[C@H](CC(=O)O)NC(=O)[C@H](CC(C)C)NC(=O)[C@H](CC(C)C)NC(=O)[C@H](CC(C)C)NC(=O)[C@H](CCCNC(=N)N)NC(=O)[C@H](CC(N)=O)NC(=O)[C@H](CC(N)=O)NC(=O)[C@H](C)NC(=O)[C@H](C)NC(=O)[C@H](CCC(N)=O)NC(=O)[C@H](CCC(N)=O)NC(=O)[C@H](CCCCN)NC(=O)[C@H](CCC(=O)O)NC(=O)[C@H](CCCCN)NC(=O)[C@H](CCC(=O)O)NC(=O)[C@H](CCC(N)=O)NC(=O)[C@H](CCCCN)NC(=O)[C@H](CCC(=O)O)NC(=O)[C@@H](NC(=O)[C@H](CCC(=O)O)NC(=O)[C@@H](NC(=O)[C@H](CCSC)NC(=O)[C@H](CCCCN)NC(=O)[C@H](CCCNC(=N)N)NC(=O)[C@H](CC(C)C)NC(=O)[C@H](CC(C)C)NC(=O)[C@H](CCCNC(=N)N)NC(=O)[C@@H](NC(=O)[C@@H]1CCCN1C(=O)[C@H](CC(C)C)NC(=O)[C@H](CC(=O)O)NC(=O)[C@@H](NC(=O)[C@H](CO)NC(=O)[C@@H](NC(=O)[C@@H]1CCCN1C(=O)[C@@H]1CCCN1C(=O)CNC(=O)[C@@H]1CCC(=O)N1)[C@@H](C)CC)[C@@H](C)CC)[C@@H](C)CC)[C@@H](C)CC)[C@@H](C)CC)[C@@H](C)O)C(N)=O [compound 38] | 91 | 11 | 7.14 | < 6.00
CC[C@H](C)[C@H](NC(=O)[C@@H](NC(=O)[C@H](CC(=O)O)NC(=O)[C@H](CC(C)C)NC(=O)[C@H](CC(C)C)NC(=O)[C@H](CC(C)C)NC(=O)[C@H](CCCNC(=N)N)NC(=O)[C@H](CC(N)=O)NC(=O)[C@H](CC(N)=O)NC(=O)[C@H](C)NC(=O)[C@H](C)NC(=O)[C@H](CCC(N)=O)NC(=O)[C@H](CCC(N)=O)NC(=O)[C@H](CCCCN)NC(=O)[C@H](CCC(=O)O)NC(=O)[C@H](CCCCN)NC(=O)[C@H](CCC(=O)O)NC(=O)[C@H](CCC(N)=O)NC(=O)[C@H](CCCCN)NC(=O)[C@H](CCC(=O)O)NC(=O)[C@@H](NC(=O)[C@H](CCC(=O)O)NC(=O)[C@@H](NC(=O)[C@H](CCSC)NC(=O)[C@H](CCCCN)NC(=O)[C@H](CCCNC(=N)N)NC(=O)[C@H](CC(C)C)NC(=O)[C@H](CC(C)C)NC(=O)[C@H](Cc1ccc(O)cc1)NC(=O)[C@@H](NC(=O)[C@@H]1CCCN1C(=O)[C@H](CC(C)C)NC(=O)[C@H](CC(=O)O)NC(=O)[C@@H](NC(=O)[C@H](CO)NC(=O)[C@@H](NC(=O)[C@@H]1CCCN1C(=O)[C@@H]1CCCN1C(=O)CNC(=O)[C@@H]1CCC(=O)N1)[C@@H](C)CC)[C@@H](C)CC)C(C)C)[C@@H](C)CC)[C@@H](C)CC)[C@@H](C)O)C(N)=O [compound 39] | 94 | 63 |  | 
CC[C@H](C)[C@H](NC(=O)[C@@H](NC(=O)[C@H](CC(=O)O)NC(=O)[C@H](CC(C)C)NC(=O)[C@H](CC(C)C)NC(=O)[C@H](CC(C)C)NC(=O)[C@H](CCCNC(=N)N)NC(=O)[C@H](CC(N)=O)NC(=O)[C@H](CC(N)=O)NC(=O)[C@H](C)NC(=O)[C@H](C)NC(=O)[C@H](CCC(N)=O)NC(=O)[C@H](CCC(N)=O)NC(=O)[C@H](CCCCN)NC(=O)[C@H](CCC(=O)O)NC(=O)[C@H](CCCCN)NC(=O)[C@H](CCC(=O)O)NC(=O)[C@H](CCC(N)=O)NC(=O)[C@H](CCCCN)NC(=O)[C@H](CCC(=O)O)NC(=O)[C@@H](NC(=O)[C@H](CCC(=O)O)NC(=O)[C@@H](NC(=O)[C@H](CCSC)NC(=O)[C@H](CCCCN)NC(=O)[C@H](CCCNC(=N)N)NC(=O)[C@H](CC(C)C)NC(=O)[C@H](CC(C)C)NC(=O)[C@@H](NC(=O)[C@@H](NC(=O)[C@@H]1CCCN1C(=O)[C@H](CC(C)C)NC(=O)[C@H](CC(=O)O)NC(=O)[C@@H](NC(=O)[C@H](CO)NC(=O)[C@@H](NC(=O)[C@@H]1CCCN1C(=O)[C@@H]1CCCN1C(=O)CNC(=O)[C@@H]1CCC(=O)N1)[C@@H](C)CC)[C@@H](C)CC)[C@@H](C)CC)C(C)C)[C@@H](C)CC)[C@@H](C)CC)[C@@H](C)O)C(N)=O [compound 31] | 100 | 18 | 7.51 | < 6.00
